Laboratory results: patent US10494384B2, “Urea peptoid boric acid compound, pharmaceutical composition thereof, preparation method therefor, and uses thereof” (Peking University, priority 2015, dated 2019)

By UniProt entry, the sequences of proteins in these tests, tags left out. Where a name states a change or a piece, a line headed by the entry shows the natural chain unless it says otherwise.
UniProt P18421: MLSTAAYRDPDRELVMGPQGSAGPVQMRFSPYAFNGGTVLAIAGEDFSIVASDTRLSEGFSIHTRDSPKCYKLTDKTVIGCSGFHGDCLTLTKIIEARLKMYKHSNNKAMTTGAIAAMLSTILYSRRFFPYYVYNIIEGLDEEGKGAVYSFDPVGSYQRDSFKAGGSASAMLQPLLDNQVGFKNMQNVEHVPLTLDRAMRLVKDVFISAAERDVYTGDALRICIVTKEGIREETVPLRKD
UniProt P28075: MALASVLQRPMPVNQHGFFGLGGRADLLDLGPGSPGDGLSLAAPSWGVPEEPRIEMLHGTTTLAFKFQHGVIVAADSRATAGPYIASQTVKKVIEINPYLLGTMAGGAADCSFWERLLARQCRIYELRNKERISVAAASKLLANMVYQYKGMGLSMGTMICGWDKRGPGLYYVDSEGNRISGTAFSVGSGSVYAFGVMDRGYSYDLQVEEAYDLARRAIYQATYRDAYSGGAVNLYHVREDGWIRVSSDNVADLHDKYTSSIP

How the values were obtained:
[1] = system: MGC803 stomach cancer cells; assay: anti-tumor activity in vitro (IC50), MTT; assay type: cell-based; conditions: Homo sapiens, MGC-803, 72 h
Procedure: (§1) Cancer cells were cultured in vitro. When cell growth reached logarithmic phase, the cells were collected and centrifuged at 1000 rpm for 5 min, before the supernate was removed and the cells were suspended in a moderate amount of medium, and then the concentration of cell was adjusted to 3.5×10^4/mL. The cell suspension was added into a 96-well plate with 100 μL per well and cultured in a cell incubator (37° C., 5% CO2) for 24 h. Then test drugs of different end concentrations were added, and the negative control group was added DMSO (end concentration was 0.5%), while each group afforded three repetitive holes. After cultivation for another 72 h in the cell incubator, a solution containing 5 mg/ml MTT (20 μL) was added into each well and the 96-well plate was placed at 37° C. for 3 h. To each well was added 150 μL DMSO, after oscillation in a shaking table for 5 min, the optical density (OD) values at 492 nm/620 nm were measured. IC50 values were calculated by Prism Graphpad statistical software.

[2] = system: HepG2 liver cancer cells; assay: anti-tumor activity in vitro (IC50), MTT; assay type: cell-based; conditions: Homo sapiens, 72 h
Procedure: as §1

[3] = system: HCT116; assay: anti-tumor activity in vitro (IC50), MTT; assay type: cell-based; conditions: Homo sapiens, HCT-116, 72 h
Procedure: as §1

[4] = system: 95D; assay: anti-tumor activity in vitro (IC50), MTT; assay type: cell-based; conditions: Homo sapiens, 72 h
Procedure: as §1

[5] = system: MDA-MB-231; assay: anti-tumor activity in vitro (IC50), MTT; assay type: cell-based; conditions: Homo sapiens, 72 h
Procedure: as §1

[6] = system: BEL7404; assay: anti-tumor activity in vitro (IC50), MTT; assay type: cell-based; conditions: Homo sapiens, BEL-7404, 72 h
Procedure: as §1

[7] = system: MKN45; assay: anti-tumor activity in vitro (IC50), MTT; assay type: cell-based; conditions: Homo sapiens, MKN-45, 72 h
Procedure: as §1

[8] = system: SW1990; assay: anti-tumor activity in vitro (IC50), MTT; assay type: cell-based; conditions: Homo sapiens, 72 h
Procedure: as §1

[9] = system: A549; assay: anti-tumor activity in vitro (IC50), MTT; assay type: cell-based; conditions: Homo sapiens, 72 h
Procedure: as §1

[10] = system: SKOV3; assay: anti-tumor activity in vitro (IC50), MTT; assay type: cell-based; conditions: Homo sapiens, SK-OV-3, 72 h
Procedure: as §1

[11] = molecular target: T1, 20S proteasome extracted from rat liver (CT-L) (Rattus norvegicus, UniProt P18421+P28075); assay: inhibition of 20S proteasome, CT-L activity (fluorescent peptide); assay type: biochemical
T1 construct: 20S proteasome extracted from rat liver; from tissue; host or cells: rat liver
Procedure: 1 μg of 20S proteasome extracted from rat liver was incubated with a 100 μL solution containing various concentrations of the present compounds, 50 μM fluorescent peptides and 20 mM Tris-HCl at 37° C. for 1 h, respectively. […] 0.1% DMSO was used as a solvent control. Compared with the fluorescence of solvent control, an inhibition rate or IC50 value was calculated.

SMILES | IC50 [1] [µM] | IC50 [2] [µM] | further results
CC(C)C[C@H](NC(=O)[C@H](Cc1ccccc1)NC(=O)N(C)Cc1ccccc1)B(O)O [Example 29, N-L-phenylalanyl-L-leucine borate-N′—(N-methyl-benzylamine)-urea] | 0.0052 | 0.0305 | 
CC(C)C[C@H](NC(=O)[C@H](Cc1ccccc1)NC(=O)NCCc1ccccc1)B(O)O [Example 25, N-L-phenylalanyl-L-leucine borate-N′-phenylethylamine-urea] |  | 0.0709 | 
CC(C)C[C@H](NC(=O)[C@H](Cc1ccccc1)NC(=O)N[C@@H](C)c1ccccc1)B(O)O [Example 27, N-L-phenylalanyl-L-leucine borate-N′—(S)-2-methyl-benzylamine-urea] | 0.198 | 1.07 | 
CC(C)C[C@H](NC(=O)[C@H](Cc1ccccc1)NC(=O)NCc1cccc([N+](=O)[O-])c1)B(O)O [Example 36, N-L-phenylalanyl-L-leucine borate-N′-3-nitro-benzylamine-urea] | 0.00632 | 0.0438 | 
CC(C)C[C@H](NC(=O)[C@H](Cc1ccccc1)NC(=O)NCc1ccco1)B(O)O [Example 33, N-L-phenylalanyl-L-leucine borate-N′-furan-2-ylmethylamine-urea] | 0.00532 | 0.0456 | 
CC(C)C[C@H](NC(=O)[C@H](Cc1ccccc1)NC(=O)c1cnccn1)B(O)O [positive control, bortezomib, reference compound] |  |  | IC50 [3]: 0.0014 µM; IC50 [4]: 0.0382 µM; IC50 [5]: 0.0166 µM; IC50 [6]: 0.025 µM; IC50 [7]: 0.00715 µM; IC50 [8]: 0.0791 µM; IC50 [9]: 2.14 µM; IC50 [10]: 0.00162 µM
CC(C)C[C@H](NC(=O)[C@H](Cc1ccccc1)NC(=O)N[C@H](C)c1ccccc1)B(O)O [Example 26, N-L-phenylalanyl-L-leucine borate-N′—(R)-2-methyl-benzylamine-urea] | 0.00408 | 0.037 | IC50 [11]: 0.01 µM
